This note sets out measurements from patent publication US8686113B2 (priority 2009, dated 2014).

In the data set the test system is SH-SY5Y cells. Format: cell-based. Conditions: human, 24 h, 400 µg/mL. On the procedure: The cytotoxicity of the peptides, peptidomimetics and penetratin constructs was determined with the “Cell Proliferation Kit I” from the company Roche Diagnostics GmbH (Mannheim, Germany). The method is based on reduction of the yellow methylthiazolyldiphenyl tetrazolium bromide (MTT) by cellular oxidoreductases of metabolically active cells (Vistica D T et al. Tetrazolium-Based Assays for Cellular Viability-A Critical Examination of Selected Parameters Affecting Formazan Production. Cancer Research 51: 2515-20, 1991; Slater T F, Sawyer B, & Strauli U. Studies on Succinate-Tetrazolium Reductase Systems. 3. Points of Coupling of 4 Different Tetrazolium Salts. Biochimica et Biophysica Acta 11: 383-&, 1963; Berridge […]. […] Archives of Biochemistry and Biophysics 303: 474-82, 1993). The formation of the water-insoluble purple-colored formazan product is proportional to the number of viable cells and can be detected photometrically after cell lysis. Cell culture was carried out in cell culture bottles (25 cm^2) with a filter cap or in 96-well microtiter plates (Greiner Bio-One GmbH, Frickenhausen, Germany) at 37° C. under 5% CO2 and 95% air humidity. All media and additives were obtained from PAA Laboratories (Pasching, Austria). […] HeLa or SH-SY5Y cells were plated out in sterile 96-well microtiter plates with a concentration of 2×10^4 cells/well and were incubated overnight. […]

For “RQIKIWFQNRRMKWKKC(CH2CO-ffSGDRSGYSSRGS-OH)-OH [SEQ ID NO. 106]”, the “proportion of growing SH-SY5Y cells” value is listed as 70%.
